Target: T1, GIRK4* channel (Homo sapiens, UniProt P48544, S143T)
T1 sequence (P48544 1-419 S143T): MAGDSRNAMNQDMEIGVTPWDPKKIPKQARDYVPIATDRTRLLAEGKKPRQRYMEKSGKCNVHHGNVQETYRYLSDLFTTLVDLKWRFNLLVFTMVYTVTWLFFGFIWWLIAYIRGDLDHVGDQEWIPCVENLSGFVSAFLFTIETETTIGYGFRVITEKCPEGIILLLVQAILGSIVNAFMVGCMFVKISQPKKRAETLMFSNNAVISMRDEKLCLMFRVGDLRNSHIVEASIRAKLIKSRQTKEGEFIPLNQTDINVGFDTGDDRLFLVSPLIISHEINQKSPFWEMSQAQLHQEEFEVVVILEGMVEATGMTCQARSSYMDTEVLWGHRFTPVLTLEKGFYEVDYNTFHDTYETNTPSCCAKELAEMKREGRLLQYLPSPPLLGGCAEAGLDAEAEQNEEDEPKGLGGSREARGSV
Assay: TEVC, oocytes expressing GIRK4* alone versus GIRK4* and 5-HT2A receptors
Type: cell-based
Settings: 50 µM or higher; suggests direct inhibition of GIRK4* channel

Cc1nc2n(c(=O)c1CCN1CCC(c3noc4cc(F)ccc34)CC1)CCCC2 [compound 1, risperidone, reference compound]
current inhibition in oocytes expressing GIRK4* alone versus GIRK4* and 5-HT2A receptors: no significant differences
